# Experimental data as given in patent publication US5672707A (priority 1991, dated 1997).
# Legend:
# Type in all cases: in vivo
# [1] = tested on: membranes of brain synaptosomes; test: Microviscosity of brain synaptosome membranes, amnestic syndrome model; details: rats, scopolamine 20 days, then drug 10 days
# [2] = tested on: brain synaptosomes; test: Cholesterol content in brain synaptosomes, old rats; details: old rats (18 month), 20 days application
# [3] = tested on: membranes of brain synaptosomes; test: Microviscosity of brain synaptosome membranes, old rats; details: old rats (18 month), 20 days application
# Method: Microviscosity of membranes of brain synaptosomes was studied with the use of molecular probe pirren. Brain tissue homogenization and preparation of synaptosomes were performed by the method of De Robertis.
# Improvement of animal performance was accompanied by the normalizing of brain synaptosomes microviscosity under the action of all the substances tested. […] The latter observation indicates to the possible interference of amiridine and substance Vo into the processes of atherogenesis in old animals.
smiles,measurement,setting,value
"NC(=O)CN1CCCC1=O [Piracetam, piracetam, reference compound]",Microviscosity changes in % to control,[1],102.6 % to control
same,Cholesterol content in synaptosomes (% from total lipid content),[2],35.1 ± 1.0 % from total lipid content
same,Microviscosity changes (% to control),[3],101.8 % to control
